scFv variants of Ab-14 (heavy chain) against a SARS-CoV-2 spike peptide

Binding partner: SARS-CoV-2 spike HR2 peptide, sequence PDVDLGDISGINAS.

Each scFv is VH, the linker GGGGSGGGGSGGGGS, VL, as in the parent Ab-14, and differs from it in the CDRs of the heavy chain only.
VH: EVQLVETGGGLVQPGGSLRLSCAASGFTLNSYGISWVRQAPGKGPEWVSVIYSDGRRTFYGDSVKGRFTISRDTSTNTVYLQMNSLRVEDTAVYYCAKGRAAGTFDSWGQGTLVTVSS
VL: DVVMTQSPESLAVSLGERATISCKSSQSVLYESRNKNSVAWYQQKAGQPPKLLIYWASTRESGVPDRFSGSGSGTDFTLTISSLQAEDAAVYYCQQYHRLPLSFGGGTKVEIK

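The starting antibody came from a phage panning campaign against this peptide. In library AAYL49, one, two or three CDR residues were substituted; doubles and triples were drawn at random. The assay is AlphaSeq: two haploid yeast populations carry antibody and antigen on their surface. The frequency of each diploid, read from paired DNA barcodes, reflects how well the two displayed proteins bind. Read counts were normalised to the haploid input and turned into Kd by a linear fit to BCL2-family pairs of known affinity, for each replicate. There are three technical replicates.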

Positions count from residue 1 of the parent VH; S31Y puts Y in place of S. Values are log10 of the apparent Kd in nM; lower means stronger binding. A mean of the replicates is given; it leaves out those without a signal. "ND" means that the variant was in the library but no mating with the target was seen in that replicate; the authors take this as a sign of poor binding, and no number exists. Nonspecific signal, from three strains lacking the peptide, appeared in 15% of pairings of library AAYL49, centred on 4.06 (5% of these signals below 2.83); values are not corrected for it. Also given: how often the same scFv was detected with the empty control strains, with their mean in brackets.

changes	log10 Kd, replicates	mean log10 Kd (nM)	empty controls
S31Y S35Q A101S	3.31 / ND / ND	3.31	0 of 9
Y52P R56I	ND / ND / ND	ND	0 of 9
Y32C S35C G55L	ND / ND / ND	ND	4 of 9 (4.43)
I34C Y52H R100F	ND / ND / ND	ND	0 of 9
V50R V64E S107N	5.94 / 3.69 / ND	4.82	5 of 9 (4.54)
Y32I D54I	ND / ND / ND	ND	1 of 9 (4.20)
Y52P G61H	ND / ND / ND	ND	0 of 9
G26I S53A Y60Q	ND / ND / ND	ND	0 of 9
D54Y R57I G99K	ND / 3.98 / 4.75	4.37	2 of 9 (4.51)
L29D F105T	ND / 2.58 / 2.42	2.50	1 of 9 (2.67)
Y32S G103Q D106A	3.94 / ND / ND	3.94	0 of 9
N30I I51D F105T	ND / 3.05 / ND	3.05	0 of 9
V50W D106S	ND / ND / ND	ND	0 of 9
V64H K65R	ND / 4.21 / ND	4.21	1 of 9 (5.02)
Y32V S35W A101G	4.89 / ND / 6.25	5.57	4 of 9 (4.95)
N30P R56H V64F	4.19 / 3.30 / 4.09	3.86	3 of 9 (3.59)
K65Q G103L S107C	ND / ND / ND	ND	0 of 9
S31H G55F T104G	ND / ND / ND	ND	0 of 9
I34R S63V S107M	ND / ND / ND	ND	1 of 9 (3.16)
V50C G99S D106Y	ND / 4.21 / ND	4.21	0 of 9
T28Y S35K	5.63 / 3.86 / 4.03	4.51	3 of 9 (4.63)
N30I R56E	3.45 / 2.96 / 3.35	3.25	2 of 9 (5.22)
D54H G61P S107R	ND / ND / ND	ND	1 of 9 (3.31)
Y60G G61E	ND / ND / 4.01	4.01	4 of 9 (4.54)
N30I A102H	2.22 / 1.91 / 2.45	2.19	0 of 9
T28K T58Q F105V	ND / 4.23 / ND	4.23	1 of 9 (3.10)
T28F T58M G99D	ND / ND / ND	ND	0 of 9
G55W K65N D106Y	ND / ND / ND	ND	2 of 9 (4.63)
G33P R57W A102L	5.53 / ND / 5.17	5.35	3 of 9 (3.58)
S35V Y52C R100E	ND / 3.43 / ND	3.43	2 of 9 (4.72)
N30I D54F R57K	ND / ND / ND	ND	0 of 9
T28N D106K	0.09 / 0.47 / 0.26	0.27	2 of 9 (4.54)
V50L S63R T104P	ND / ND / ND	ND	0 of 9
T58M D106W	1.75 / 2.17 / 2.26	2.06	3 of 9 (5.40)
F27P G103W F105G	1.41 / 1.47 / 1.91	1.60	4 of 9 (4.52)
T28V V50H F59R	6.20 / 5.30 / ND	5.75	3 of 9 (4.35)
F59Q R100P D106W	ND / ND / ND	ND	0 of 9
Y60P V64D D106W	ND / ND / ND	ND	0 of 9
G26D S31H V64D	6.34 / ND / ND	6.34	3 of 9 (4.39)
D54T T58P S107H	ND / ND / ND	ND	0 of 9
Y32M G99S	2.18 / 2.56 / 2.41	2.38	5 of 9 (4.16)

The closing 6 entries, repeated:

changes,"log10 Kd, replicates",mean log10 Kd (nM),empty controls
T28V V50H F59R,6.20 / 5.30 / ND,5.75,3 of 9 (4.35)
F59Q R100P D106W,ND / ND / ND,ND,0 of 9
Y60P V64D D106W,ND / ND / ND,ND,0 of 9
G26D S31H V64D,6.34 / ND / ND,6.34,3 of 9 (4.39)
D54T T58P S107H,ND / ND / ND,ND,0 of 9
Y32M G99S,2.18 / 2.56 / 2.41,2.38,5 of 9 (4.16)

The measurements come from Engelhart et al. 2022 (doi:10.1038/s41597-022-01779-4) through the FLAb antibody collection.